FN deposit inh: fibronectin deposition inhibition; AH1F fibroblasts, Alexa488-fibronectin deposition fluorescence, overnight; inhibition, % at 12.6 µM; 350,000 tested, 0.086% active; AID 743247;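 active = mean inhibition across replicates of 30% or more, regardless of how many single replicates reach that level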;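 also: positive control wells lacked labelled fibronectin entirely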
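material = AH1F fibroblast monolayer depositing Alexa488-labelled fibronectin into matrix | amount = 10000 AH1F cells/well | buffer or medium = DMEM plus 2% serum, read in PBS | incubation = 1 h cell adhesion before compound, then overnight fibronectin incubation | detection = fluorescence at 485 nm excitation, 525 nm emission | evaluation = percent inhibition as loss of matrix-bound fibronectin fluorescence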
PGC1a acetyl inh: lowers PGC1a acetylation signal in U2OS cells | AlphaScreen anti-acetyl-lysine; with virally co-expressed GCN5 acetyltransferase | inhibition, % at 15.6 µM | 350,000 tested, 0.17% active;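 active = every replicate shows inhibition of at least 40%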;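 also: 0% = neutral control wells and 100% = positive control wells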
Statin myotox sup: protects C2C12 myotubes from simvastatin toxicity. ATP luminescence, 48 h; scaled: DMSO 0, geranylgeraniol control 100. rescue of ATP level, % at 7.49 µM. AID 602340. 330,000 tested, 0.78% active;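 active = mean ATP rescue above about 67%, or every replicate alone reaching that limit, limit read from the data, passing the limit was not always enough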;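 also: myotubes were challenged with 10 µM simvastatin during compound exposure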
hiPSC survival: enhancers of human iPSC single-cell survival; AID 602274; 360,000 tested, 0.044% active; survival enhancement, % at 20 µM; hiPSC single-cell survival, ATPlite luminescence; 100% = ROCK inhibitor wells, 0% = DMSO; in the data active = survival enhancement above about 18%;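 also: cells exposed to compounds for 16 hours before the ATP read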
Yeast UUG start: modulators of start codon recognition fidelity in yeast; S. cerevisiae UUG-firefly luciferase reporter, luminescence/redox ratio; AID 602363; 350,000 tested, 0.13% active; activity score, % at 18.7 µM;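 active = replicate mean at a twofold rise or more, about +100% in these data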;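 also: firefly luciferase made from a UUG start codon reports start codon fidelity; reporter light over untreated wells divided by growth signal over untreated wells; some hits fall short of that in this replicate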
Active calls of the source: *; . = no result. Most compounds without a hit are left out; they make up all but 0.91% or so of the library.

1) Cc1ccc(/C=N/c2sc3c(c2C#N)CCC3)s1
2) O=C(Nc1ccncc1)c1cc(F)cc(F)c1
3) O=C(Nc1ccncc1)c1ccc(Br)cc1
4) CCCCC(=O)N(Cc1ccc(F)cc1)C1CCS(=O)(=O)C1 (stereo unspecified)
5) CC(C)CC(=O)N(Cc1ccc(F)cc1)C1CCS(=O)(=O)C1 (stereo unspecified)
6) O=C(c1ccccc1)c1ccc(OCC(O)CN2CCN(S(=O)(=O)N3CCCCC3)CC2)cc1 (stereo unspecified)
7) Cc1c(C(=O)N2CCOCC2)oc2ccc(S(=O)(=O)N3CCCC3)cc12
8) CCOC(=O)N1CCN(C(=O)c2oc3ccc(S(=O)(=O)N4CCOCC4)cc3c2C)CC1
assay / entry	1	2	3	4	5	6	7	8
Statin myotox sup	120*	72*	12	87*	.	77*	121*	95*
hiPSC survival	1	-2	1	0	2	-3	-2	-3
Yeast UUG start	-25	-13	-18	3	1	9	-15	-9
FN deposit inh	.	.	2	0	-20	.	-5	0
PGC1a acetyl inh	-1	-9	0	-17	.	1	-1	7

2 of these compounds in a different format:
| cpd | compound | Statin myotox sup | hiPSC survival | Yeast UUG start | FN deposit inh | PGC1a acetyl inh |
| --- | --- | --- | --- | --- | --- | --- |
| 4 | CCCCC(=O)N(Cc1ccc(F)cc1)C1CCS(=O)(=O)C1 (stereo unspecified) | 87* | 0 | 3 | 0 | -17 |
| 3 | O=C(Nc1ccncc1)c1ccc(Br)cc1 | 12 | 1 | -18 | 2 | 0 |

Other compounds
9) CCOC(=O)N1CCN(C(=O)c2oc3ccc(S(=O)(=O)N4CCCCCC4)cc3c2C)CC1
10) C[C@@H]1CN([C@@H](C)CO)C(=O)c2cc(C3=CCCC3)cnc2O[C@@H]1CN(C)Cc1ccccc1
11) C[C@@H]1CCCCO[C@@H](CN(C)Cc2ccc3c(c2)OCO3)[C@H](C)CN([C@H](C)CO)C(=O)c2cc(NC(=O)Nc3ccc(F)cc3)ccc2O1
12) Cc1ccc(NS(=O)(=O)c2ccc(C)c(C(=O)N3CCN(C)CC3)c2)cc1
13) Cc1ccc(S(=O)(=O)N2CCN(Cc3nc4sc(C)c(C)c4c(=O)[nH]3)CC2)cc1
14) Cc1sc2nc(CN3CCN(S(=O)(=O)c4cccc5nonc45)CC3)[nH]c(=O)c2c1C
15) CC(=O)Nc1ccc(S(=O)(=O)Nc2ccc3nc(C)sc3c2)cc1
16) C=CCn1c(=N)c(C(=O)NCCCOC)cc2c(=O)n3cccc(C)c3nc21
assay / entry	9	10	11	12	13	14	15	16
Statin myotox sup	-4	27	-602	123*	23	93*	90*	-2
hiPSC survival	-2	.	.	-2	-2	-3	-3	6
Yeast UUG start	6	-2	26	-7	-16	-6	4	-1
FN deposit inh	-7	-10	.	.	.	.	-2	.
PGC1a acetyl inh	-7	-3	-17	-4	3	1	3	-1

17) COCCCNC(=O)c1cccn2c(=O)c3cc4ccccc4cc3nc12
18) CC(C)C[C@H]1CN=C(Nc2ccccc2)N1CCCCc1ccccc1
19) Cc1cc(C)c(C)c(S(=O)(=O)NCC(=O)N2CCCC2)c1C
20) Cc1cc(/C=N/n2cnnc2)c(C)n1-c1ccc(Cl)cc1Cl
21) Cc1cc(/C=N/n2cnnc2)c(C)n1-c1ccc(Cl)cc1
22) CCOC(=O)N1CCN(C(=O)Cn2nc(C)c3sc4ccccc4c3c2=O)CC1
23) O=C(CC12CC3CC(CC(C3)C1)C2)N1CCOCC1
24) O=C(CC12CC3CC(CC(C3)C1)C2)N1CCCOC1
assay / entry	17	18	19	20	21	22	23	24
Statin myotox sup	182*	105*	115*	97*	.	103*	115*	.
hiPSC survival	0	1	3	1	2	4	2	3
Yeast UUG start	-8	-10	-6	-8	.	4	-17	-7
FN deposit inh	.	-13	0	.	-2	.	.	-6
PGC1a acetyl inh	-2	11	-7	-2	.	6	6	.

Results in Yeast UUG start, PGC1a acetyl inh and FN deposit inh, for two of the compounds above:
| nr | molecule | Yeast UUG start | PGC1a acetyl inh | FN deposit inh |
| --- | --- | --- | --- | --- |
| 20 | Cc1cc(/C=N/n2cnnc2)c(C)n1-c1ccc(Cl)cc1Cl | -8 | -2 | . |
| 22 | CCOC(=O)N1CCN(C(=O)Cn2nc(C)c3sc4ccccc4c3c2=O)CC1 | 4 | 6 | . |

The list continues.
25) CCN(CC)S(=O)(=O)c1cccc(C(=O)NC(C(=O)NC2=NCCS2)C(C)C)c1 (stereo unspecified)
26) Clc1ccc(Cn2nnc(-c3ccc(CN4CCOCC4)cc3)n2)cc1
27) Fc1cccc(Cl)c1Cn1nnc(-c2ccc(N3CCOCC3)cc2)n1
28) CCOC(=O)CC(=O)CSc1ncc(C(=O)OCC)c(N)n1
29) CCOC(=O)c1cnc(SCC(=O)OC)nc1N
30) COc1cccc(S(=O)(=O)N2CC[C@@H]3[C@H]2c2cc(Br)ccc2N[C@@H]3CO)c1
31) C[C@@H]1CCCCO[C@@H](CN(C)S(=O)(=O)c2ccccc2)[C@H](C)CN([C@@H](C)CO)C(=O)c2cc(NC(=O)Nc3ccc(C(F)(F)F)cc3)ccc2O1
32) CNC(=O)c1ccc(-c2ccc(OC)cc2)s1
assay / entry	25	26	27	28	29	30	31	32
Statin myotox sup	81*	3	99*	120*	.	28	.	-9
hiPSC survival	3	-3	2	4	2	.	.	-2
Yeast UUG start	-9	-22	-5	-13	.	-5	-16	-26
FN deposit inh	.	-3	1	.	2	-1	-6	.
PGC1a acetyl inh	5	6	5	6	0	15	9	2

33) CNC(=O)c1ccc(-c2ccc(F)cc2)s1
34) Cc1ccc(S(=O)(=O)OCCC2=CC(=O)CCN2Cc2ccccc2)cc1
35) O=C(NCCCN1CCCCCC1)C1CC(=O)N(CCc2ccccc2)C1 (stereo unspecified)
36) CN1[C@H](C(=O)NCc2ccncc2)[C@@H](CO)[C@@H]2Cn3c(ccc(-c4ccccc4F)c3=O)[C@@H]21
37) CCCCOC(=O)c1ccccc1N1C(=O)C2C3CCC(C3)C2C1=O (stereo unspecified)
38) O=C(C[C@H]1C[C@H]2c3cc(NS(=O)(=O)c4ccccc4)ccc3O[C@H]2[C@H](CO)O1)N1CCCCC1
39) CCCCN(CC)CCCNC(=O)c1cc2c(=O)n(CC)c3ccccc3c2s1
40) COc1ccc(CN(C)CCCn2cnc3c(OC)ncnc32)cc1OC
assay / entry	33	34	35	36	37	38	39	40
Statin myotox sup	69*	21	-2	1	83*	-1	97*	2
hiPSC survival	-1	0	19*	.	-1	.	0	25*
Yeast UUG start	-13	8	-2	.	11	11	28	-7
FN deposit inh	.	-17	.	.	-4	7	19	2
PGC1a acetyl inh	7	63*	0	-7	1	21	-53	6

41) COc1ccc(CN(C)CCCn2cnc3c(OCc4ccccc4)ncnc32)cc1
42) CC(C)(C)c1ccc(-n2nc(C#N)c(Cl)cc2=O)cc1
43) CC(C)(C)c1ccc(-n2nc(C(N)=O)c(O)cc2=O)cc1
44) C[C@H]1CN([C@@H](C)CO)C(=O)c2cc(NC(=O)c3ccncc3)ccc2O[C@@H]1CN(C)S(=O)(=O)c1ccc(F)cc1
45) COc1ccc(C2C(C(C)=O)=C(O)C(=O)N2c2ccc(Br)cn2)cc1 (stereo unspecified)
46) CS(=O)(=O)N(CCc1ccccc1)CC(=O)N1CCc2ccccc2C1
47) CS(=O)(=O)N(CCc1ccccc1)CC(N)=O
48) CO[C@H]1CN(C)C(=O)c2ccc(NC(=O)Nc3ccccc3F)cc2OC[C@@H](C)N(C)C[C@@H]1C
49) c1ccc2[nH]c(CSc3nnc(-c4ccncc4)o3)nc2c1
50) Brc1cccc(-c2nnc(SCc3nc4ccccc4[nH]3)o2)c1
51) COc1ccc(CN(C)C[C@@H]2Oc3c(NS(=O)(=O)c4ccc(C)cc4)cccc3C(=O)N([C@H](C)CO)C[C@H]2C)cc1
assay / entry	41	42	43	44	45	46	47	48	49	50	51
Statin myotox sup	-5	.	-7	0	136*	111*	102*	-8	85*	42	-1
hiPSC survival	2	0	-3	.	7	2	-1	.	-1	0	.
Yeast UUG start	-5	.	-4	-8	-27	-1	-16	-8	-19	-21	9
FN deposit inh	7	30*	-5	3	.	-1	.	-26	.	.	.
PGC1a acetyl inh	10	82*	4	4	-17	-1	14	-4	-3	3	0
